In PMC3998711 (Nature chemical biology, 2014):

Target: first bromodomain of BRD4, BRD4(1) (Homo sapiens, UniProt O60885)
Assay: AlphaScreen assay
Assay type: binding
Conditions: described in words

AlphaScreen dose response IC50: nanomolar
Compound: Cc1cnc(Nc2ccc(OCCN3CCCC3)cc2)nc1Nc1cccc(S(=O)(=O)NC(C)(C)C)c1 [TG-101348]
